Source: patent US12351653B1, “Pharmaceutical compositions comprising novel cyclic peptides” (LISATA THERAPEUTICS, INC., priority 2019, dated 2025)
Entries after “also recorded” stand apart in the source; their conditions may differ.

Legend:
[1] = Pharmacokinetic study in mice (IV bolus, LC-MS plasma levels); format: in vivo, CD-1 ICR mice; settings: IV bolus 4.5 mg/kg
Method: CEND-1 or iRGD was given to fed CD-1 ICR mice by IV bolus at a nominal dose of 4.5 mg/kg in both groups, with four mice in each group, and an actually administered dose of 3.87 mg/kg for CEND-1 and 4.33 mg for iRGD. CEND-1 and iRGD were formulated in saline at a concentration of 0.9 mg/ml. Liquid chromatography-mass spectroscopy (LC-MS) was used to determine plasma levels of CEND-1 and iRGD in mice at different time points. Pharmacokinetic parameters were then calculated.

[2] = Stability in phosphate-buffered saline, pH=7.4; format: physicochemical; settings: pH = 7.4, 37° C.
Method: (§1) For the stability studies in phosphate-buffered saline (PBS), pH=7.4, the 10×PBS stock was diluted to normal 1×PBS concentration and CEND-1 or iRGD was dissolved to a final concentration of ˜1 mg/mL. For the stability studies in pooled human plasma, the frozen pooled human plasma was first thawed, mixed and then clarified by centrifugation. CEND-1 or iRGD was dissolved at a final concentration of ˜2.5 mg/mL in clarified pooled human plasma. For the stability studies with carboxypeptidase Y (CY) a 50 mM sodium phosphate buffer at pH=6.5 containing 0.15 M sodium chloride, 6 Units/mL of carboxypeptidase and ˜0.1 mg/mL CEND-1 or iRGD was prepared. For the stability studies with carboxypeptidase B (CB) a 25 mM Tris·HCl buffer at pH=7.7 containing 0.10 M sodium chloride, 14 Units/mL of carboxypeptidase B and 0.1 mg/mL CEND-1 or iRGD was prepared. For the stability studies with aminopeptidase (AP) a 20 mM Tris·HCl buffer at pH=8 containing 10 Units/mL of carboxypeptidase B and ˜0.1 mg/mL CEND-1 or iRGD was prepared.
(§2) The solutions were incubated at 25° C. and 37° C. and samples were pulled at appropriate time intervals for analysis. Samples in PBS, samples with carboxypeptidase Y and B and aminopeptidase were directly used for HPLC analysis without prior dilution. […]

[3] = Stability in pooled human plasma; format: in vitro ADME; settings: 37° C.
Method: as §1, §2

[4] = Phase I trial (CEND-001): safety; format: in vivo, human
Method: (§3) The open-label, dose escalation, multicenter (3 active sites in Australia) trial involved a run-in phase with ascending doses of CEND-1 monotherapy (1-7 days), followed by the combination of CEND-1 with nab-paclitaxel (125 mg/m^2) and gemcitabine (1000 mg/m^2) on days 1, 8, 15 of a 21-day treatment cycle. Patients will first receive the intravenous infusion of nabpaclitaxel (125 mg/m^2 over 30 minutes (±3 minutes)). CEND-1 is given intravenously at the applicable dose level as a slow IV push over 1 minute (±30 seconds) immediately following completion of the post-nabpaclitaxel saline flush. The intravenous infusion of gemcitabine (1000 mg/m2 over 30 minutes (±3 minutes)) will be started as soon as possible, but at the latest within 10 minutes of CEND-1 administration.
During the CEND-1 run-in during dose escalation, the following definition of DLT was used:
A DLT in the run-in period was defined as: • Grade 4 neutropenia lasting ≥5 days or Grade 3 or 4 neutropenia with fever and/or infection • Grade 4 thrombocytopenia (or Grade 3 with bleeding) • Grade 3 or 4 treatment-related non-hematological toxicity (Grade 3 nausea, vomiting or diarrhea that last >72 hours despite maximal treatment constitutes a DLT, insufficient treatment will not constitute an exception to the DLT criteria, as this would constitute inadequate conduct of the study) • Dosing delay greater than 2 weeks due to treatment-emergent AEs or related severe laboratory abnormalities.
During the combination portion of the study, the following definition of dose-limiting toxicity was used: • Any side effect that is more severe, longer in duration or more frequent than side effects expected from the nab-paclitaxel and gemcitabine package insert. • Any side effect that is not included in the nab-paclitaxel and gemcitabine package insert that meets the DLT definition of the monotherapy above.

[5] = Phase I trial (CEND-001): CEND-1 pharmacokinetics; format: in vivo, human; settings: patients
Method: as §3
In the CEND1-001 trial, as set forth above, CEND-1 was given initially at escalating doses from 0.2 mg/kg to 3.2 mg/kg during a run-in period of 1 to 7 days, during which PK and safety of the single agent were assessed.

aminopeptidase = test: Stability in presence of aminopeptidase; format: in vitro ADME; settings: 25° C., 20 mM Tris·HCl buffer pH=8, 10 Units/mL enzyme
Method: as §1, §2

carboxypeptidase B = test: Stability in presence of carboxypeptidase B; format: in vitro ADME; settings: 25° C., 25 mM Tris·HCl buffer pH=7.7, 14 Units/mL enzyme
Method: as §1, §2

carboxypeptidase Y = biological target: T1, carboxypeptidase Y (Saccharomyces cerevisiae, UniProt P00729); test: Stability in presence of carboxypeptidase Y; format: in vitro ADME; settings: 25° C., 50 mM sodium phosphate buffer pH=6.5, 6 Units/mL enzyme
T1 construct: purchased
T1 sequence (P00729 112-532): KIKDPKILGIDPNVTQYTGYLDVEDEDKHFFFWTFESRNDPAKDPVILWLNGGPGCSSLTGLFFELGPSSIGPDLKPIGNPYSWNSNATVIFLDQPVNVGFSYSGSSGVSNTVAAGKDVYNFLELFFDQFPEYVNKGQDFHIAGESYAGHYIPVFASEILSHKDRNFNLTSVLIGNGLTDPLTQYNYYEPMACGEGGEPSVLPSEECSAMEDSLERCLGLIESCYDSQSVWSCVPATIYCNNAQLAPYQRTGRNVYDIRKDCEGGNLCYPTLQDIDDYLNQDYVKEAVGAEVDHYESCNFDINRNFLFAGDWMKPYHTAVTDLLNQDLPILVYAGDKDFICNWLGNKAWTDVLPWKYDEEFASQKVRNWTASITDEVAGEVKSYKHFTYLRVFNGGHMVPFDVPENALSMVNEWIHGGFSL
Method: as §1, §2

[6] = with nab-paclitaxel and gemcitabine, CTCAE version 5

## Ac-Cys-Arg-Gly-Asp-Lys-Gly-Pro-Asp-Cys-NH2 (Cys & Cys Bridge) [CEND-1]
[1]
  Increased half-life compared to iRGD: 46%
[1]; 1 hour after administration
  Increase of mean plasma concentration of CEND-1 over iRGD: 2.56 fold
[1]; mean
  C0: 11908 ng/mL
  T1/2: 14.6 min
  Tlast: 1.50 h
[1]; time 0.05 h
  Mean Cmax plasma concentration: 9561 ng/mL
[1]; time 0.167 h
  Mean Cmax plasma concentration: 5756 ng/mL
[1]; time 0.5 h
  Mean Cmax plasma concentration: 1917 ng/mL
[1]; time 1.0 h
  Mean Cmax plasma concentration: 535 ng/mL
[1]; time 1.5 h
  Mean Cmax plasma concentration: 121 ng/mL
[2]
  Degradation Rate: 1.1 %/Day
  Ratio Deg Rate iRGD/CEND-1: 3
[3]
  Degradation Rate: 2.5 %/Day
  Ratio Deg Rate iRGD/CEND-1: 1.6
[4]; 31 patients enrolled, 9 caused by progression of primary disease, 1 due to stroke
  Patient deaths reported during the study: 10
[4]; CEND-1 0.2-3.2 mg/kg with nab-paclitaxel and gemcitabine
  Dose limiting toxicities: No dose limiting toxicities; also recorded: no DLTs
[4]; CEND-1 monotherapy, any dose level 0.2 to 3.2 mg/kg, run-in of 1 to 7 days
  DLTs or grade 3 or 4 adverse events, single agent run-in: no DLTs or grade 3 or 4 adverse events
[4]; with nab-paclitaxel and gemcitabine, 5 patients, data cutoff 27 Apr. 2020
  Drug related grade 3-4 adverse events: anemia: 17%
[4]; with nab-paclitaxel and gemcitabine, 18 patients, data cutoff 27 Apr. 2020
  Drug related grade 3-4 adverse events: neutropenia: 62%
[4]; [6]
  Frequency of grade 3-4 bone marrow toxicity: anaemia: 24%
  Frequency of grade 3-4 bone marrow toxicity: leukopenia: 14%
  Frequency of grade 3-4 bone marrow toxicity: neutropenia: 55%
  Frequency of grade 3-4 bone marrow toxicity: thrombocytopenia: 3%
[5]; 0.2 to 3.2 mg/kg, no increase with repeat dosing
  Cmax dependence on dose: dose proportional increase
[5]; IV push, all days of PK sampling (minimum 0.03, maximum 0.55)
  Median Tmax: 4.02 min
aminopeptidase
  Degradation by aminopeptidase: neither degraded
Carboxypeptidase B
  Degradation by carboxypeptidase B: neither degraded
Carboxypeptidase Y
  Degradation by carboxypeptidase Y: neither degraded
